Experiments:
[1] = system: Alzheimer's disease double transgenic mouse model, Tg (APPSWE) 2576KhaTg (Prnp-MAPT*P301L) JNPL3HImc; test: Number of nerve cells with AT8 immunostaining-positive neurofibrillary tangles in the Alzheimer's disease double transgenic mouse model
[2] = system: Alzheimer's disease double transgenic mouse model, Tg (APPSWE) 2576KhaTg (Prnp-MAPT*P301L) JNPL3HImc; test: Number of senile plaques by size (HE, Aβ40 and Aβ42 staining) in the Alzheimer's disease double transgenic mouse model

Cc1nc(-c2ccc(OCC(C)C)c(C#N)c2)sc1C(=O)O
nerve cells with AT8 immunostaining-positive neurofibrillary tangles in the cerebrum 1 coronal section ([1]; coronal section including hypothalamus and amygdaloid nucleus, 5 mg/kg orally once a day from one year old, sampled at 690-700 days, mean±standard error, n=5): 70.2±32.8
number of nerve cells with AT8 immunostaining-positive neurofibrillary tangles compared to the control group ([1]; p=0.014, Kruskal-Wallis test, 5 mg/kg orally once a day): decreased significantly
number of the small senile plaques ([2]; diameter 50 μm or less, 5 mg/kg orally once a day from one year old, sampled at 690-700 days, mean±standard error, n=5): 148.5±13.2
number of the medium senile plaques ([2]; diameter 50 μm to 100 μm, 5 mg/kg orally once a day from one year old, sampled at 690-700 days, mean±standard error, n=5): 31.2±3.9
number of large senile plaques in the cerebrum 1 coronal section ([2]; diameter 100 μm or more, 5 mg/kg orally once a day from one year old, sampled at 690-700 days, mean±standard error, n=5): 7.9±1.3
number of medium senile plaques compared to the control group ([2]; p=0.006, Mann-Whitney U test, 5 mg/kg orally once a day): significant decrease
number of large senile plaques compared to the control group ([2]; p=0.033, Mann-Whitney U test, 5 mg/kg orally once a day): significant decrease
number of small senile plaques compared to the control group ([2]; p=0.055, Mann-Whitney U test, 5 mg/kg orally once a day): no significant difference
